This assay has as its target human µ-opioid receptor (Homo sapiens, UniProt P35372). Format: cell-based. The following applies: read-out: EC50 ± SD µ.

By UniProt entry, the sequences of proteins in these tests, tags left out.
UniProt P35372, whole entry: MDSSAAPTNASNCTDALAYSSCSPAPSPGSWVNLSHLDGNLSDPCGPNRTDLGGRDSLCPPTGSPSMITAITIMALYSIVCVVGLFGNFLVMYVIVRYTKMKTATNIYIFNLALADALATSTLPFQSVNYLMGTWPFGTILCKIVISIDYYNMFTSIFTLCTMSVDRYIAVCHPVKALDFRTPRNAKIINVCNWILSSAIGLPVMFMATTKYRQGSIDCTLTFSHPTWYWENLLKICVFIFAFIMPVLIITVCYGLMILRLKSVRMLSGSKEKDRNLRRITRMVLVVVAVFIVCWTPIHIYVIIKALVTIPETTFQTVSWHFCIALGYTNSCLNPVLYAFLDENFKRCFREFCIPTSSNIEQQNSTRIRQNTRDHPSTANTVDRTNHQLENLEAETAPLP

Bounds are passed on as bounds.

As for `COC(=O)[C@@H]1C[C@@H](OC(C)=O)C(=O)[C@H]2[C@@]1(C)CC[C@H]1C(=O)O[C@H](c3ccoc3)C[C@]21C` [Compound 1c], the concentration giving a half-maximal response (EC50) is > 10 µM.

The values are drawn from article PMC5189922 (Journal of medicinal chemistry, 2016).
